A short description of this series: Pharmacokinetic testing of salt forms, oral dosing in rats (Example 5). The class given is in vivo. The note with it: fasted male Sprague-Dawley rats, mean values, dose mg/kg: Compound 1 18.2, Phosphate 14.3, Tartrate 18.7, Malate 18.6, Succinate 18.7, Benzenesulfonate 17.6.

SMILES strings stand for the structures.

These results are taken from patent publication US20220380348A1, “AXL INHIBITOR FORMULATIONS” (Sumitomo Dainippon Pharma Oncology, Inc., priority 2019, published 2022).

In the case of `CN1CCN(Cc2ccc(Nc3ncc(Cl)c(Nc4ccccc4S(=O)(=O)N(C)C)n3)cc2)CC1.O=C(O)C[C@H](O)C(=O)O` [Malate Salt], the Bioavailability is on record as 37.3%.
